# Values of other authors in article PMC5700124 (Scientific Reports, 2017).
# Test system: translocator protein (TSPO)
# Design: method as in Hilmer et al.[39]
# Settings: 0.1 ng/kg i.v.; ref Hilmer et al.[39]; cited from earlier work
substance,measurement,value
lipopolysaccharide [LPS],increase of [^11C] PBR28 fP,38%
